Experimental data: US7183436B2, “Substituted 4-aminocyclohexanols” (dated 2007)

Test system: NMRI mice
Assay: Analgesia test by the tail-flick test on mice
Settings: for % MPE: intravenous dosage 1 mg/kg

For CN(C)C1(c2ccccc2)CCC(O)(c2cc3ccccc3n2C)CC1 (stereo not drawn), the “% MPE” value was 100 (1) % MPE and the ED50 intravenous (intravenous, peak of action 20 minutes after administration, regression analysis) was 0.19 mg/kg.

With CN(C)C1(c2ccccc2)CCC(O)(c2csc3ccccc23)CC1 (stereo not drawn) the “% MPE” value was 100 (1) % MPE.
